Reference: ChEMBL document CHEMBL1137867, “Design and synthesis of 3'-ureidoadenosine-5'-uronamides: effects of the 3'-ureido group on binding to the A3 adenosine receptor” (Bioorg Med Chem Lett, 2004)

Amino acid sequences for entries named in this document (tags omitted).
UniProt P0DMS8, whole entry: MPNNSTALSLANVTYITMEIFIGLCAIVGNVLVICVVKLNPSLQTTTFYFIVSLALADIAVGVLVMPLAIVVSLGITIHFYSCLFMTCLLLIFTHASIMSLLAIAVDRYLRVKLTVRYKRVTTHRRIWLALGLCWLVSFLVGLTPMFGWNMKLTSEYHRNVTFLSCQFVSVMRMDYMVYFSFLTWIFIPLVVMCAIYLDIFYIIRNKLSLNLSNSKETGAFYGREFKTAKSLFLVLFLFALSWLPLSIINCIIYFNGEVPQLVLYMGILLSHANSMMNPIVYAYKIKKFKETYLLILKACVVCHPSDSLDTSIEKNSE
UniProt P30542, whole entry: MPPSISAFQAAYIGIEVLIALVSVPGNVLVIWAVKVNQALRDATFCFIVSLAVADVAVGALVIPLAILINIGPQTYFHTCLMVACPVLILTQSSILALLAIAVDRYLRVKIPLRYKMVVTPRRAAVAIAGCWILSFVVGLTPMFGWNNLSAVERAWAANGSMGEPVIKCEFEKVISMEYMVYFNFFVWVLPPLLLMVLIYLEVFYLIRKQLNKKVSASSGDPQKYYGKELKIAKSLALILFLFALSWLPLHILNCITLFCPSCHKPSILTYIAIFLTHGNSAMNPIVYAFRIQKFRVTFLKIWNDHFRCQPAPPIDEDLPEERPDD

Tests used:
[1] = target: Adenosine receptor A2a (Homo sapiens) (UniProt P29274); assay: Binding affinity towards recombinant human Adenosine A2a receptor was determined using [3H]CGS-21680 (10 nM) as radioligand
[2] = target: Adenosine receptor A3 (Homo sapiens) (UniProt P0DMS8); assay: Binding affinity towards human Adenosine A3 receptor stably transfected in CHO cells was determined using [125I]I-AB-MECA (1.0 nM) as radioligand; assay type: cell-based
[3] = target: Adenosine receptor A1 (Homo sapiens) (UniProt P30542); assay: Binding affinity towards recombinant human Adenosine A1 receptor was determined using [3H]R-PIA (2.0 nM) as radioligand

| SMILES | inhibition [1] [%] | inhibition [2] [%] | inhibition [3] [%] |
| --- | --- | --- | --- |
| CNC(=O)C1OC(n2cnc3c(NC)ncnc32)C(O)C1NC(N)=O (configuration not stated) | < 3 | < 3 | < 3 |
| CNC(=O)C1OC(n2cnc3c(Nc4cccc(I)c4)nc(Cl)nc32)C(O)C1NC(N)=O (configuration not stated) | 3 | 24 | < 3 |
| CNC(=O)C1OC(n2cnc3c(Nc4cccc(I)c4)ncnc32)C(O)C1NC(N)=O (configuration not stated) | < 3 | 9 | < 3 |
| CNC(=O)C1OC(n2cnc3c(NC)nc(Cl)nc32)C(O)C1NC(N)=O (configuration not stated) | < 3 | 8 | < 3 |
